Assay results from patent US20060094649A1, “Hla-a1,-a2,-a3,-a24,-b7, and-b44 tumor associated antigen peptides and compositions” (priority 2002, published 2006).

Test system: HLA-B44 supertype molecules
Assay: HLA-B44 supertype cross-binding
Parameters: species or system human
Conditions: number of the six B44 supertype alleles bound

Degeneracy	SMILES
6	CC[C@H](C)[C@H](NC(=O)[C@H](CCCCN)NC(=O)[C@H](CCCCN)NC(=O)[C@H](CS)NC(=O)CNC(=O)[C@H](C)NC(=O)[C@H](Cc1ccccc1)NC(=O)[C@H](CCC(=O)O)NC(=O)[C@@H](N)CCC(N)=O)C(=O)N[C@@H](Cc1ccccc1)C(=O)NCC(=O)O [compound 441]
6	CC(C)C[C@H](NC(=O)[C@@H]1CCCN1C(=O)[C@H](CO)NC(=O)[C@H](C)NC(=O)[C@@H]1CCCN1C(=O)CNC(=O)[C@H](CC(C)C)NC(=O)[C@H](CC(=O)O)NC(=O)[C@H](CCC(=O)O)NC(=O)[C@@H](N)CC(N)=O)C(=O)O [compound 444]
6	CC(C)C[C@H](NC(=O)[C@@H]1CCCN1C(=O)[C@H](CO)NC(=O)[C@H](CCCNC(=N)N)NC(=O)[C@@H]1CCCN1C(=O)[C@H](C)NC(=O)[C@H](CCC(=O)O)NC(=O)[C@H](CCC(=O)O)NC(=O)[C@H](CCC(=O)O)NC(=O)[C@@H](N)CO)C(=O)O [compound 445]
6	CC(C)C[C@H](NC(=O)[C@@H]1CCCN1C(=O)[C@H](C)NC(=O)[C@@H](NC(=O)[C@H](Cc1ccc(O)cc1)NC(=O)CNC(=O)[C@H](CC(=O)O)NC(=O)[C@@H](NC(=O)[C@H](CCC(=O)O)NC(=O)[C@@H](N)CO)[C@@H](C)O)C(C)C)C(=O)O [compound 446]
5	CC(C)C[C@H](NC(=O)[C@H](CCC(=O)O)NC(=O)[C@@H](N)CC(C)C)C(=O)N[C@H](C(=O)N[C@@H](Cc1ccc(O)cc1)C(=O)N[C@@H](CC(C)C)C(=O)N1CCC[C@H]1C(=O)N[C@H](C(=O)N[C@@H](CC(N)=O)C(=O)N[C@@H](C)C(=O)O)[C@@H](C)O)[C@@H](C)O [compound 447]
5	CC(C)C[C@H](NC(=O)[C@H](C)NC(=O)[C@H](Cc1ccc(O)cc1)NC(=O)[C@H](CC(N)=O)NC(=O)[C@H](CC(=O)O)NC(=O)[C@H](CCC(=O)O)NC(=O)[C@@H](N)Cc1ccccc1)C(=O)N[C@@H](C)C(=O)N[C@H](C(=O)O)C(C)C [compound 449]
5	CC(C)C[C@H](NC(=O)[C@H](CCC(N)=O)NC(=O)[C@H](CC(C)C)NC(=O)[C@H](CCC(=O)O)NC(=O)[C@@H](N)CCCNC(=N)N)C(=O)N[C@@H](CCCNC(=N)N)C(=O)N[C@@H](CO)C(=O)N[C@@H](CC(C)C)C(=O)N[C@H](C(=O)O)[C@@H](C)O [compound 450]
5	CSCC[C@H](N)C(=O)N[C@@H](CCC(=O)O)C(=O)N[C@@H](Cc1c[nH]cn1)C(=O)N[C@@H](CC(C)C)C(=O)N[C@@H](CCCNC(=N)N)C(=O)N[C@@H](CCC(=O)O)C(=O)N[C@H](C(=O)N[C@@H](CCCNC(=N)N)C(=O)N[C@@H](C)C(=O)O)C(C)C [compound 451]
5	CSCC[C@H](N)C(=O)N[C@@H](CCC(=O)O)C(=O)N[C@@H](Cc1c[nH]cn1)C(=O)N[C@@H](CC(C)C)C(=O)N[C@@H](CCCNC(=N)N)C(=O)N[C@@H](CCC(=O)O)C(=O)N[C@H](C(=O)N[C@@H](CCCNC(=N)N)C(=O)N[C@@H](C)C(=O)N[C@H](C(=O)O)C(C)C)C(C)C [compound 452]
5	CSCC[C@H](N)C(=O)N[C@@H](CCC(=O)O)C(=O)N[C@@H](Cc1c[nH]cn1)C(=O)N[C@@H](CC(C)C)C(=O)N[C@@H](CCCNC(=N)N)C(=O)N[C@@H](CCC(=O)O)C(=O)N[C@H](C(=O)N[C@@H](CCCNC(=N)N)C(=O)N[C@@H](C)C(=O)N[C@H](C(=O)N[C@H](C(=O)N[C@@H](CO)C(=O)N[C@@H](C)C(=O)O)[C@@H](C)O)C(C)C)C(C)C [compound 453]
5	CC[C@H](C)[C@H](NC(=O)[C@H](CCCCN)NC(=O)[C@H](CCCCN)NC(=O)[C@H](CS)NC(=O)CNC(=O)[C@H](C)NC(=O)[C@H](Cc1ccccc1)NC(=O)[C@H](CCC(=O)O)NC(=O)[C@@H](N)CCC(N)=O)C(=O)N[C@@H](Cc1ccccc1)C(=O)O [compound 454]
5	CC[C@H](C)[C@H](NC(=O)[C@H](Cc1ccc(O)cc1)NC(=O)[C@H](CC(C)C)NC(=O)[C@H](Cc1ccc(O)cc1)NC(=O)CNC(=O)[C@@H](NC(=O)[C@@H](NC(=O)[C@H](CCC(=O)O)NC(=O)[C@@H](N)CCC(=O)O)[C@@H](C)CC)[C@@H](C)O)C(=O)N[C@@H](CO)C(=O)N[C@@H](C)C(=O)O [compound 455]
5	CC(C)C[C@H](NC(=O)[C@H](C)NC(=O)[C@H](CC(C)C)NC(=O)CNC(=O)[C@H](CO)NC(=O)CNC(=O)[C@H](CC(C)C)NC(=O)[C@H](CCC(=O)O)NC(=O)[C@@H](N)CCCNC(=N)N)C(=O)O [compound 456]
5	CC[C@H](C)[C@H](NC(=O)[C@H](CC(C)C)NC(=O)[C@H](C)NC(=O)[C@H](CC(C)C)NC(=O)CNC(=O)[C@H](CO)NC(=O)CNC(=O)[C@H](CC(C)C)NC(=O)[C@H](CCC(=O)O)NC(=O)[C@@H](N)CCCNC(=N)N)C(=O)O [compound 457]
5	CC(C)C[C@H](NC(=O)[C@H](CCC(N)=O)NC(=O)[C@H](Cc1c[nH]cn1)NC(=O)[C@H](CS)NC(=O)[C@H](C)NC(=O)[C@H](CC(C)C)NC(=O)CNC(=O)[C@H](CCC(=O)O)NC(=O)CN)C(=O)O [compound 458]
5	CC(C)C[C@H](NC(=O)[C@H](CS)NC(=O)[C@H](Cc1c[nH]cn1)NC(=O)[C@H](CCCNC(=N)N)NC(=O)[C@H](C)NC(=O)[C@H](CC(N)=O)NC(=O)[C@@H](NC(=O)[C@H](Cc1ccc(O)cc1)NC(=O)[C@H](CCC(=O)O)NC(=O)[C@@H](N)CCCNC(=N)N)C(C)C)C(=O)O [compound 459]
5	CC[C@H](C)[C@H](NC(=O)[C@@H]1CCCN1C(=O)[C@H](CS)NC(=O)[C@@H]1CCCN1C(=O)[C@H](CCC(N)=O)NC(=O)[C@H](CS)NC(=O)[C@H](C)NC(=O)CNC(=O)[C@H](CCC(=O)O)NC(=O)[C@@H](N)CCC(=O)O)C(=O)O [compound 460]
5	CC(C)C[C@H](NC(=O)[C@@H]1CCCN1C(=O)[C@H](CO)NC(=O)[C@H](C)NC(=O)[C@H](CCCNC(=N)N)NC(=O)[C@H](CCC(N)=O)NC(=O)[C@H](CCC(=O)O)NC(=O)[C@H](C)N)C(=O)N[C@H](C(=O)O)[C@@H](C)O [compound 461]
5	CC(C)C[C@H](NC(=O)[C@@H]1CCCN1C(=O)[C@H](CCC(=O)O)NC(=O)[C@@H](NC(=O)[C@H](CC(C)C)NC(=O)[C@H](CCC(=O)O)NC(=O)[C@@H](NC(=O)[C@H](CCC(=O)O)NC(=O)[C@@H](N)CCC(N)=O)[C@@H](C)O)C(C)C)C(=O)O [compound 462]
5	CC(C)C[C@H](NC(=O)[C@H](CCC(=O)O)NC(=O)[C@@H](NC(=O)[C@H](CCC(=O)O)NC(=O)[C@@H](N)CCC(N)=O)[C@@H](C)O)C(=O)N[C@H](C(=O)N[C@@H](CCC(=O)O)C(=O)N1CCC[C@H]1C(=O)N[C@@H](CC(C)C)C(=O)N[C@H](C(=O)O)[C@@H](C)O)C(C)C [compound 463]
5	CC[C@H](C)[C@H](NC(=O)[C@H](C)NC(=O)[C@@H](NC(=O)[C@@H]1CCCN1C(=O)[C@@H](NC(=O)[C@H](CCCCN)NC(=O)[C@@H](NC(=O)[C@H](CC(N)=O)NC(=O)[C@H](CCC(=O)O)NC(=O)CN)C(C)C)[C@@H](C)CC)C(C)C)C(=O)O [compound 464]
5	CSCC[C@H](NC(=O)[C@H](CCCNC(=N)N)NC(=O)[C@H](CO)NC(=O)[C@H](Cc1ccccc1)NC(=O)[C@H](CCC(=O)O)NC(=O)[C@H](CO)NC(=O)[C@@H](NC(=O)[C@H](CC(C)C)NC(=O)[C@H](CCC(=O)O)NC(=O)[C@@H](N)CCCNC(=N)N)C(C)C)C(=O)O [compound 465]
5	CSCC[C@H](NC(=O)[C@H](CCCNC(=N)N)NC(=O)[C@H](CO)NC(=O)[C@H](Cc1ccccc1)NC(=O)[C@H](CCC(=O)O)NC(=O)[C@H](CO)NC(=O)[C@@H](NC(=O)[C@H](CC(C)C)NC(=O)[C@H](CCC(=O)O)NC(=O)[C@@H](N)CCCNC(=N)N)C(C)C)C(=O)N[C@@H](C)C(=O)O [compound 466]
5	CC(C)C[C@H](NC(=O)[C@@H]1CCCN1C(=O)[C@@H](NC(=O)[C@@H](NC(=O)[C@@H]1CCCN1C(=O)[C@H](CC(=O)O)NC(=O)[C@H](CCC(=O)O)NC(=O)[C@@H](N)CO)[C@@H](C)O)C(C)C)C(=O)O [compound 468]
5	CC(C)C[C@H](NC(=O)[C@@H]1CCCN1C(=O)[C@H](C)NC(=O)[C@@H](NC(=O)[C@H](Cc1ccc(O)cc1)NC(=O)CNC(=O)[C@H](CC(=O)O)NC(=O)[C@@H](NC(=O)[C@H](CCC(=O)O)NC(=O)[C@@H](N)CO)[C@@H](C)O)C(C)C)C(=O)N[C@H](C(=O)O)[C@@H](C)O [compound 469]
5	CC(C)C[C@H](NC(=O)CNC(=O)[C@H](CC(C)C)NC(=O)[C@H](Cc1ccc(O)cc1)NC(=O)[C@H](CCC(=O)O)NC(=O)[C@@H]1CCCN1C(=O)[C@H](CC(N)=O)NC(=O)[C@H](CCC(=O)O)NC(=O)[C@H](C)N)C(=O)N[C@@H](CC(=O)O)C(=O)N[C@H](C(=O)O)C(C)C [compound 470]
4	CSCC[C@H](N)C(=O)N[C@@H](CCC(=O)O)C(=O)N[C@@H](CC(C)C)C(=O)N[C@@H](C)C(=O)N[C@@H](C)C(=O)N[C@@H](CC(C)C)C(=O)N[C@@H](CS)C(=O)N[C@@H](CCCNC(=N)N)C(=O)N[C@@H](Cc1c[nH]c2ccccc12)C(=O)O [compound 471]
4	CSCC[C@H](N)C(=O)N[C@@H](CCC(=O)O)C(=O)N[C@@H](CC(C)C)C(=O)N[C@@H](C)C(=O)N[C@@H](C)C(=O)N[C@@H](CC(C)C)C(=O)N[C@@H](CS)C(=O)N[C@@H](CCCNC(=N)N)C(=O)N[C@@H](Cc1c[nH]c2ccccc12)C(=O)NCC(=O)O [compound 472]
4	CC[C@H](C)[C@H](NC(=O)[C@H](CC(C)C)NC(=O)[C@@H](NC(=O)[C@H](Cc1ccc(O)cc1)NC(=O)CNC(=O)[C@H](CCC(N)=O)NC(=O)[C@@H](NC(=O)[C@H](CCC(=O)O)NC(=O)[C@@H](N)CCC(N)=O)C(C)C)C(C)C)C(=O)N[C@@H](C)C(=O)O [compound 473]
4	CC(C)C[C@H](NC(=O)[C@@H](NC(=O)[C@H](C)NC(=O)[C@H](CC(C)C)NC(=O)[C@H](C)NC(=O)[C@H](Cc1ccc(O)cc1)NC(=O)[C@H](CC(N)=O)NC(=O)[C@H](CC(=O)O)NC(=O)[C@H](CCC(=O)O)NC(=O)[C@@H](N)Cc1ccccc1)C(C)C)C(=O)O [compound 474]
